The values below come from ChEMBL document CHEMBL1828593 (Bioorg Med Chem, 2011).

Chains of the proteins cited; added tags and fusions are not shown.
UniProt P58154, whole entry: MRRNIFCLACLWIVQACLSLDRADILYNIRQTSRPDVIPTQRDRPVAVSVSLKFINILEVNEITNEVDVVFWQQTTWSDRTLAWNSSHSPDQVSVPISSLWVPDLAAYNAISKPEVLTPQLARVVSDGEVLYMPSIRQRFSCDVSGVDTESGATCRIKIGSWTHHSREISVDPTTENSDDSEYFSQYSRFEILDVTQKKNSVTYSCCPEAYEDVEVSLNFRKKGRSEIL

The assay concerns the target Acetylcholine-binding protein (Lymnaea stagnalis, UniProt P58154). Briefly: Displacement of [3H]-epibatidine from histidine-tagged Lymnaea stagnalis AChBP expressed in Sf9 cells after 1.5 hrs by liquid scintillation counting. In general terms: In a radioligand displacement assay an active substance lowers the binding of a labelled ligand.

One may read the Ki as a measure of affinity in units of concentration, obtained from inhibition or displacement. Higher therefore signals weaker binding. For `CN1CCC[C@H]1c1cccnc1` [NICOTINE], the affinity corresponds to a Ki of 316 nM.
